# Reference: US20170343570A1
# Test system: antibody derived from Immunogen 2 (polyclonal antisera)
# Assay: Competitive assay (ELISA) for cross-reactivity measurement
# Conditions: for % CR (cross-reactivity): MT-45 = 100; for Ave OD: OD 450 nm; for CR, Curve 1: replicate run 1; for CR, Curve 2: replicate run 2; for CR, Curve 3: replicate run 3
# [1] = Table 1a, antisera 0.625 μg/ml from sheep 1
# [2] = Table 1a, antisera 0.625 μg/ml from sheep 1, average of 3 curves
# [3] = Table 1a, antisera 0.625 μg/ml from sheep 1, standard conc. 0.015625 ng/ml
# [4] = Table 1a, antisera 0.625 μg/ml from sheep 1, standard conc. 0.03125 ng/ml
# [5] = Table 1a, antisera 0.625 μg/ml from sheep 1, standard conc. 0.0625 ng/ml
# [6] = Table 1a, antisera 0.625 μg/ml from sheep 1, standard conc. 0.125 ng/ml
# [7] = Table 1a, antisera 0.625 μg/ml from sheep 1, standard conc. 0.25 ng/ml
# [8] = Table 1a, antisera 0.625 μg/ml from sheep 1, standard conc. 0.5 ng/ml
# [9] = Table 1a, antisera 0.625 μg/ml from sheep 1, standard conc. 1 ng/ml
# [10] = Table 1b, antisera 10.00 μg/ml from sheep 2
# [11] = Table 1b, antisera 10.00 μg/ml from sheep 2, average of 3 curves
# [12] = Table 1b, antisera 10.00 μg/ml from sheep 2, standard conc. 0.03125 ng/ml
# [13] = Table 1b, antisera 10.00 μg/ml from sheep 2, standard conc. 0.0625 ng/ml
# [14] = Table 1b, antisera 10.00 μg/ml from sheep 2, standard conc. 0.125 ng/ml
# [15] = Table 1b, antisera 10.00 μg/ml from sheep 2, standard conc. 0.25 ng/ml
# [16] = Table 1b, antisera 10.00 μg/ml from sheep 2, standard conc. 0.5 ng/ml
# [17] = Table 1b, antisera 10.00 μg/ml from sheep 2, standard conc. 1 ng/ml
# [18] = Table 1b, antisera 10.00 μg/ml from sheep 2, standard conc. 2 ng/ml
# [19] = Table 1c, antisera 5.00 μg/ml from sheep 3
# [20] = Table 1c, antisera 5.00 μg/ml from sheep 3, standard conc. 0.03125 ng/ml
# [21] = Table 1c, antisera 5.00 μg/ml from sheep 3, standard conc. 0.0625 ng/ml
# [22] = Table 1c, antisera 5.00 μg/ml from sheep 3, standard conc. 0.125 ng/ml
# [23] = Table 1c, antisera 5.00 μg/ml from sheep 3, standard conc. 0.25 ng/ml
# [24] = Table 1c, antisera 5.00 μg/ml from sheep 3, standard conc. 0.5 ng/ml
# [25] = Table 1c, antisera 5.00 μg/ml from sheep 3, standard conc. 1 ng/ml
# [26] = Table 1c, antisera 5.00 μg/ml from sheep 3, standard conc. 2 ng/ml
structure (smiles),measurement,setting,value
c1ccc(CC(c2ccccc2)N2CCN(C3CCCCC3)CC2)cc1 (stereo not drawn),IC50,[1],0.131 ng/mL
same,% CR (cross-reactivity),[2],100%
same,B/Bo,[3],91%
same,Ave OD,[3],1.903
same,B/Bo,[4],76%
same,Ave OD,[4],1.602
same,B/Bo,[5],72%
same,Ave OD,[5],1.506
same,B/Bo,[6],51%
same,Ave OD,[6],1.069
same,B/Bo,[7],33%
same,Ave OD,[7],0.687
same,B/Bo,[8],16%
same,Ave OD,[8],0.339
same,B/Bo,[9],8%
same,Ave OD,[9],0.165
same,IC50,[10],0.279 ng/mL
same,% CR (cross-reactivity),[11],100%
same,B/Bo,[12],82%
same,Ave OD,[12],1.594
same,B/Bo,[13],79%
same,Ave OD,[13],1.543
same,B/Bo,[14],66%
same,Ave OD,[14],1.286
same,B/Bo,[15],52%
same,Ave OD,[15],1.006
same,B/Bo,[16],37%
same,Ave OD,[16],0.728
same,B/Bo,[17],24%
same,Ave OD,[17],0.462
same,B/Bo,[18],14%
same,Ave OD,[18],0.276
same,IC50,[19],0.221 ng/mL
same,% CR (cross-reactivity),[19],100%
same,B/Bo,[20],83%
same,Ave OD,[20],1.549
same,B/Bo,[21],81%
same,Ave OD,[21],1.523
same,B/Bo,[22],64%
same,Ave OD,[22],1.205
same,B/Bo,[23],46%
same,Ave OD,[23],0.851
same,B/Bo,[24],28%
same,Ave OD,[24],0.527
same,B/Bo,[25],16%
same,Ave OD,[25],0.294
same,B/Bo,[26],8%
same,Ave OD,[26],0.155
same,IC50 of the antibody to MT-45 as calculated from a standard curve,"antibody from KLH immunogen, MT-45-CME-HCTL-maleimide-HRP (Tracer 2) as detecting agent",< 1.00 ng/mL
Oc1cccc(CC(c2ccccc2)N2CCN(C3CCCCC3)CC2)c1 (stereo not drawn),IC50,[1],0.158 ng/mL
same,% CR (cross-reactivity),[2],82.9%
same,B/Bo,[3],92%
same,Ave OD,[3],1.905
same,B/Bo,[4],87%
same,Ave OD,[4],1.818
same,B/Bo,[5],73%
same,Ave OD,[5],1.511
same,B/Bo,[6],58%
same,Ave OD,[6],1.203
same,B/Bo,[7],37%
same,Ave OD,[7],0.765
same,B/Bo,[8],19%
same,Ave OD,[8],0.389
same,B/Bo,[9],9%
same,Ave OD,[9],0.192
same,"CR, Curve 1","Table 1a, sheep 1 antisera",75.8%
same,"CR, Curve 2","Table 1a, sheep 1 antisera",80.5%
same,"CR, Curve 3","Table 1a, sheep 1 antisera",92.4%
same,IC50,[10],0.344 ng/mL
same,% CR (cross-reactivity),[11],81.1%
same,B/Bo,[12],89%
same,Ave OD,[12],1.713
same,B/Bo,[13],82%
same,Ave OD,[13],1.573
same,B/Bo,[14],70%
same,Ave OD,[14],1.353
same,B/Bo,[15],57%
same,Ave OD,[15],1.101
same,B/Bo,[16],42%
same,Ave OD,[16],0.811
same,B/Bo,[17],27%
same,Ave OD,[17],0.528
same,B/Bo,[18],17%
same,Ave OD,[18],0.321
same,"CR, Curve 1","Table 1b, sheep 2 antisera",73.4%
same,"CR, Curve 2","Table 1b, sheep 2 antisera",82.6%
same,"CR, Curve 3","Table 1b, sheep 2 antisera",87.3%
same,% CR (cross-reactivity),[19],88.4%
same,B/Bo,[20],93%
same,Ave OD,[20],1.725
same,B/Bo,[21],83%
same,Ave OD,[21],1.548
same,B/Bo,[22],68%
same,Ave OD,[22],1.266
same,B/Bo,[23],50%
same,Ave OD,[23],0.927
same,B/Bo,[24],33%
same,Ave OD,[24],0.612
same,B/Bo,[25],19%
same,Ave OD,[25],0.350
same,B/Bo,[26],10%
same,Ave OD,[26],0.189

# Some compounds may have been tested in ways that are not shown here.
